# Literature values, collected in publication PMC3131558, “Plitidepsin Has a Safe Cardiac Profile: A Comprehensive Analysis” (Marine Drugs, 2011).
# What was measured:
# [1] = test system: dog; conditions: cited from earlier work
# Description: (§1) Plitidepsin has neither shown cardiac toxicity during preclinical/toxicology studies nor has been reported in early phase I clinical trials.
# [2] = test system: patients; conditions: sudden death attributed to possible fatal ventricular arrhythmia; cited from earlier work
# Description: as §1
substance,measurement,setting,value
FK228,Cardiotoxic effects in preclinical toxicology studies in dog,[1],cardiotoxic effects
same,Cardiac findings in phase II clinical trials,[2],"QTc prolongation, moderate ventricular tachycardia and sudden death"
